These are literature values, as cited in US20100135992A1, “Prolongation of Survival of an Allograft by Inhibiting Complement Activity” (Alexion Pharmaceuticals, Inc., priority 2006, published 2010).

The data set concerns terminal complement activity. Particulars: cited from earlier work.
The mark [1] stands for this setting: PNH patients, 900 mg/patient once every 12-14 days.

Regarding “eculizumab: whole anti-human complement C5 monoclonal antibody that prevents C5 cleavage”, under “PNH patients, 900 mg dose”, the “duration of block of the effects of complement” value is on record as “approximately two weeks”. Also, under setting [1], the “symptoms of PNH” value is given as “greatly inhibited”; the terminal complement activity result is “completely and consistently block”. For the same substance, the ill effects result (intravenous administration to humans in a study of PNH) was “without ill effects”.
